Data reported in patent publication US10945951B2, “Apparatus for compound dispersion” (Biogen MA Inc., priority 2014, dated 2021).

Key:
[1] = in vivo
[2] = 20 μl bolus, intrathecal
Protocol: The same amount of each probe was used in each injected bolus. However, the total bolus volumes for the separate injections were 20 μl and 30 μl followed by a 40 μl saline flush. The boluses were injected intrathecally into rodents and the concentration of the two probes was monitored at the lumbar, thoracic, and cervical regions.

## [^99mTc]DTPA-mannosyl-dextran [Lymphoseek]
[1]
  migration to lymph nodes: migrated into the head and neck lymph nodes

## ^111In-DTPA
[2]
  concentration change over time in the lumbar region: larger concentration decrease over time
  concentration in the lumbar region at injection: initially high concentration
  concentration over time in the thoracic and cervical regions: increases over time
